Reference: PMC4386669 (Cell reports, 2014)

Sequences of proteins named here, by UniProt entry; tags and fusion partners are left off.
UniProt P09874, whole entry: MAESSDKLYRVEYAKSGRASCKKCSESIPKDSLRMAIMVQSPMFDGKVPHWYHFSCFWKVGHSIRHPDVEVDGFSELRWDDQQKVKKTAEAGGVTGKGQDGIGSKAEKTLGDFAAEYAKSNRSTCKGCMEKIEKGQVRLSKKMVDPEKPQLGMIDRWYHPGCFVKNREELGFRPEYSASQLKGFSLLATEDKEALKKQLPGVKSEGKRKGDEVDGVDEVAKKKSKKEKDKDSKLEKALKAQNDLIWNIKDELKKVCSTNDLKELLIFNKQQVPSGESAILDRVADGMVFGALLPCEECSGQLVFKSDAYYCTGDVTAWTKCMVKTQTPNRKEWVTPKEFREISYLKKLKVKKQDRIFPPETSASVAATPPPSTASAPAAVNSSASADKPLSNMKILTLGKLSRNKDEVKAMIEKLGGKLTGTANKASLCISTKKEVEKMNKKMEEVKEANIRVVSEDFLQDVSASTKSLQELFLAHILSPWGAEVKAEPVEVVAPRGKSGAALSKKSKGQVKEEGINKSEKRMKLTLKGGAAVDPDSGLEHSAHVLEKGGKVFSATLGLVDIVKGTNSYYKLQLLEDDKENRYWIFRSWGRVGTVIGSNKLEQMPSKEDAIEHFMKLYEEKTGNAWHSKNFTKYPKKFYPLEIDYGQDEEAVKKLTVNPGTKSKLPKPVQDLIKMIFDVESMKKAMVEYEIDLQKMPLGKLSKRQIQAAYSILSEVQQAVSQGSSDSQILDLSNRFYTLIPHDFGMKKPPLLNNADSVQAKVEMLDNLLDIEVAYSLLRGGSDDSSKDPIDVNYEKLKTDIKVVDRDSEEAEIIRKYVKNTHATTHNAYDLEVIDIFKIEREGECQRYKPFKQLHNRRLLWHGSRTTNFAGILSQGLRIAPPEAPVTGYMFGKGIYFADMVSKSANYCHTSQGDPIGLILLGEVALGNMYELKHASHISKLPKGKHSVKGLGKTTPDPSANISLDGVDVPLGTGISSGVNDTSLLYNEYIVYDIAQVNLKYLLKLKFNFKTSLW

Molecular target: PARP1 (Homo sapiens, UniProt P09874)
Conditions: 10 micromolar PARPi + 0.01% MMS

**Q.** With `Cn1ncnc1[C@H]1c2n[nH]c(=O)c3cc(F)cc(c23)N[C@@H]1c1ccc(F)cc1` [BMN-673] as the compound, how does the “PARP trapping potential (rank order)” value read?
**A.** BMN-673 > olaparib > veliparib
